Measured values as given in patent US20250277029A1, “CANNABINOID TYPE 1 RECEPTOR BINDING PROTEINS AND USES THEREOF” (AMGEN INC., priority 2022, published 2025).
Substitutions are numbered along the chain they refer to. Blank lines part the entries; values can stand above or below the binder they belong to.

Target: T1, XCR1-SMALP
T1 sequence (P46094 whole entry, species assumed, looked up): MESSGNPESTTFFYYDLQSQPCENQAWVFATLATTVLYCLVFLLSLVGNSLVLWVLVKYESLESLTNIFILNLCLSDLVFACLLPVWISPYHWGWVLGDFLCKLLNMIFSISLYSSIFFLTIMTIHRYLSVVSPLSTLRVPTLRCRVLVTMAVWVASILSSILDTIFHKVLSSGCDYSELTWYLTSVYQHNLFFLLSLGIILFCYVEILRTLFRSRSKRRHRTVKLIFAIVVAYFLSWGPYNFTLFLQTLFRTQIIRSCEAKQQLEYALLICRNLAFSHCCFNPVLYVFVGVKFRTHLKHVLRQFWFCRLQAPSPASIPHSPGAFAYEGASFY
Assay: flow cytometry, yeast-displayed Fab, 50 nM XCR1 SMALP

B1: LIBC529593-1 (Fab) (Fab, V domains shown)
VH: QVQLQESGPGLVKPSQTLSLTCTVSGGSIRRGGDYWSWIRQHPGKGLEWIGHIYYSGSTNYNPSLRSRVRISVDTSKNQFSLKLSSVTAADTAVYYCARDYDILTGYSYYYYGLDVWGQGTTVTVSS
VL: DIVMTQSPLSLPVTPGEPASISCRSSQSLLHRSGYNYLDWYLQKPGQSPQLLIYLGSNRASGVPDRFSGSGSGTDFTLKISRVEAEDVGVYYCMQSLQTPRTFGQGTKVEIKR
- relative binding fold change compared to LIBC523797-1(Fab): 1.5 fold

B2: LIBC673982-1 (Fab on yeast) (Fab, V domains shown)
VH: QVQLQESGPGLVKPSQTLSLTCTVSGGSIRRGGDYWSWIRQHPGKGLEWIGHIYYTGSTTYNPSFRGRVRISVNTYKNQFSLKLSSVTAADTAVYYCARDYDISGYSYYYYGMDVWGQGTTVTVSS
VL: B1 VL with M94R, L97V, Q98A, T99L
- relative binding fold change compared to LIBC523797-1(Fab): 0.79 fold

B5: LIBC674002-1 (Fab on yeast) (Fab, V domains shown)
VH: B2 VH with T56K, T60E, F65L, D100G, I103V, M113L
VL: B1 VL
- relative binding fold change compared to LIBC523797-1(Fab): 0.91 fold

B7: LIBC674024-1 (Fab on yeast) (Fab, V domains shown)
VH: B2 VH with I53V, Y55Q, T60K, R66K, G67N, D100G, I103V, M113L
VL: B1 VL
- relative binding fold change compared to LIBC523797-1(Fab): 0.86 fold

B11: LIBC673948-1 (Fab on yeast) (Fab, V domains shown)
VH: B2 VH with T60K, F65L, R66K, G67N, D100G, I103V, M113L
VL: B1 VL
- relative binding fold change compared to LIBC523797-1(Fab): 0.88 fold

B12: LIBC673972-1 (Fab on yeast) (Fab, V domains shown)
VH: B2 VH with S58Q, T60A, S64N, F65L, G67N, D100G, I103A, M113L
VL: B1 VL
- relative binding fold change compared to LIBC523797-1(Fab): 0.8 fold

B13: LIBC673965-1 (Fab on yeast) (Fab, V domains shown)
VH: B2 VH with I53V, S58Q, T60A, F65L, D100G, I103T, M113L
VL: B1 VL
- relative binding fold change compared to LIBC523797-1(Fab): 0.74 fold

The remaining lines, values ahead:

- relative binding fold change compared to LIBC523797-1(Fab): 0.52 fold
B3: LIBC674216-1 (Fab on yeast) (Fab, V domains shown)
VH: B2 VH with S58Q, T60A, F65L, G67N, D100G, M113L
VL: B1 VL

- relative binding fold change compared to LIBC523797-1(Fab): 0.54 fold
B4: LIBC674276-1 (Fab on yeast) (Fab, V domains shown)
VH: B2 VH with I53V, S64N, R66K, D100G, I103A, M113L
VL: B1 VL

- relative binding fold change compared to LIBC523797-1(Fab): 0.68 fold
B6: LIBC674214-1 (Fab on yeast) (Fab, V domains shown)
VH: B2 VH with I53V, T56E, T60K, D100G, I103V, M113L
VL: B1 VL

- relative binding fold change compared to LIBC523797-1(Fab): 0.68 fold
B8: LIBC674153-1 (Fab on yeast) (Fab, V domains shown)
VH: B2 VH with I53V, T60A, D100G, I103T, M113L
VL: B1 VL

- relative binding fold change compared to LIBC523797-1(Fab): 0.77 fold
B9: LIBC674257-1 (Fab on yeast) (Fab, V domains shown)
VH: B2 VH with S58Q, T60K, F65L, D100G, M113L
VL: B1 VL

- relative binding fold change compared to LIBC523797-1(Fab): 0.62 fold
B10: LIBC674043-1 (Fab on yeast) (Fab, V domains shown)
VH: B2 VH with S58Q, S64N, R66K, D100G, I103A, S126R
VL: B1 VL

- relative binding fold change compared to LIBC523797-1(Fab): 0.68 fold
B14: LIBC674235-1 (Fab on yeast) (Fab, V domains shown)
VH: B2 VH with I53V, T56A, F65L, R66K, G67S, D100G, I103V, M113L
VL: B1 VL

- relative binding fold change compared to LIBC523797-1(Fab): 0.91 fold
B15: LIBC674035-1 (Fab on yeast) (Fab, V domains shown)
VH: B2 VH with T56A, S58Q, T60K, R66K, G67N, D100G, M113L
VL: B1 VL
